# Laboratory results from patent US10112934B2, “(Cyano-dimethyl-methyl)-isoxazoles and -[1,3,4]thiadiazoles” (Centrexion Therapeutics Corporation, priority 2013, dated 2018).
# The chains behind the UniProt entries cited, without tags or fusion partners.
# UniProt P08183, whole entry: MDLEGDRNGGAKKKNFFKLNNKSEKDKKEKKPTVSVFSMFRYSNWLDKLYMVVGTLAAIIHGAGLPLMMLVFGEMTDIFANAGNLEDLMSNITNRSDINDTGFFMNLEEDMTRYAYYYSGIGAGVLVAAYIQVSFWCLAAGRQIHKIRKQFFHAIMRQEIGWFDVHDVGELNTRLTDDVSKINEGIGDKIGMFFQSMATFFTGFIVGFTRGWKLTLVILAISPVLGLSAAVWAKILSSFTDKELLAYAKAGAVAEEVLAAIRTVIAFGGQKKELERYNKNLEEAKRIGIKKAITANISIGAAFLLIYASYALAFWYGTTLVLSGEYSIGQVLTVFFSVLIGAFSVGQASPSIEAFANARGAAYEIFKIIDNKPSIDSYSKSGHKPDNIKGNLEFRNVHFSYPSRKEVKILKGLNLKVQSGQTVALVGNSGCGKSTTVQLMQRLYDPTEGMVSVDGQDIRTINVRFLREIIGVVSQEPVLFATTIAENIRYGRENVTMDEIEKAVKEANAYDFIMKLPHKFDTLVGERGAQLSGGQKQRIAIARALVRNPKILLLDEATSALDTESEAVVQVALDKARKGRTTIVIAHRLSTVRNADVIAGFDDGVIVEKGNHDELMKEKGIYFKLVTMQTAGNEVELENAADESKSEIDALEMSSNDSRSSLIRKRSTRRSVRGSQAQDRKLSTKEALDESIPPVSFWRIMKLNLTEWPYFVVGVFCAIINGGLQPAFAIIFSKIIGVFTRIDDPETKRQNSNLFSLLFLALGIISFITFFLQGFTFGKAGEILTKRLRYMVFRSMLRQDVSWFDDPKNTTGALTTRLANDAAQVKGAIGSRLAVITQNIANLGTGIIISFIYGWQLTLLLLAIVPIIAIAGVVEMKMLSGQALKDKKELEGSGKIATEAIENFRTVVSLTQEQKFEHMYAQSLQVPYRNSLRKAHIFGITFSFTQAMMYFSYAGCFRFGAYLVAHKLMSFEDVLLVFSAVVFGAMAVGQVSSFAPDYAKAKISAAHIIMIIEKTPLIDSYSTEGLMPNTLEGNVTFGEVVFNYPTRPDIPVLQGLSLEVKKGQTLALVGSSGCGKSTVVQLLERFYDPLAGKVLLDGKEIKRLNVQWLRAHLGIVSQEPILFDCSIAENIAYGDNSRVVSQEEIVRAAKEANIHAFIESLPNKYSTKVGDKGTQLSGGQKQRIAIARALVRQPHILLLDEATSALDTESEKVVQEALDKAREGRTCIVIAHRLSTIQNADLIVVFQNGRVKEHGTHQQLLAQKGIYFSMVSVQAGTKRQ
# Biological target: human MDR1 P-gp (Homo sapiens (Human), UniProt P08183)
# Assay: MDCK assay: efflux in MDCK cells transfected with the human MDR1 gene (assay 3)
# Assay type: in vitro ADME
# Conditions: MDCK-MDR1 cell monolayers, pH 7.4, 37° C., read-out: MDCK efflux ratio (BA/AB)
# Procedure: C. Assessment of Efflux in Madin-Darby Canine Kidney Cells Transfected with the Human MDR1 Gene (MDCK Assay) (Assay 3)
# Apparent permeability coefficients (PE) of the compounds across the MDCK-MDR1 cell monolayers are measured (pH 7.4, 37° C.) in apical-to-basal (AB) and basal-to-apical (BA) transport direction. AB permeability (PEAB) represents drug absorption from the blood into the brain and BA permeability (PEBA) drug efflux from the brain back into the blood via both passive permeability as well as active transport mechanisms mediated by efflux and uptake transporters that are expressed on the MDCK-MDR1 cells, predominantly by the overexpressed human MDR1 P-gp. The compounds are assigned to permeability/absorption classes by comparison of the AB permeabilities with the AB permeabilities of reference compounds with known in vitro permeability and oral absorption in the human. Identical or similar permeabilities in both transport directions indicate passive permeation, vectorial permeability points to additional active transport mechanisms. Higher PEBA than PEAB indicates the involvement of active efflux mediated by MDR1 P-gp. Active transport is concentration-dependently saturable.
# MDCK-MDR1 cells (1-2×10e5 cells/1 cm2 area) are seeded on filter inserts (Costar transwell polycarbonate or PET filters, 0.4 μm pore size) and cultured (DMEM) for 7 days. […]
compound,measurement,value
"CC(C)(C#N)c1cc(NC(=O)[C@@H]2CCCN2C2CCOCC2)on1 [Example 6, (S)-1-(Tetrahydro-pyran-4-yl)-pyrrolidine-2-carboxylic acid[3-(cyano-dimethyl-methyl)-isoxazol-5-yl]-amide]",efflux ratio,1
